Molecular target: T1, Human UII receptors (Homo sapiens, UniProt Q9UKP6)
T1 construct: host or cells: Human Skeletal Muscle Myoblasts (HSMM), intact adherent cells
T1 sequence (Q9UKP6 1-389): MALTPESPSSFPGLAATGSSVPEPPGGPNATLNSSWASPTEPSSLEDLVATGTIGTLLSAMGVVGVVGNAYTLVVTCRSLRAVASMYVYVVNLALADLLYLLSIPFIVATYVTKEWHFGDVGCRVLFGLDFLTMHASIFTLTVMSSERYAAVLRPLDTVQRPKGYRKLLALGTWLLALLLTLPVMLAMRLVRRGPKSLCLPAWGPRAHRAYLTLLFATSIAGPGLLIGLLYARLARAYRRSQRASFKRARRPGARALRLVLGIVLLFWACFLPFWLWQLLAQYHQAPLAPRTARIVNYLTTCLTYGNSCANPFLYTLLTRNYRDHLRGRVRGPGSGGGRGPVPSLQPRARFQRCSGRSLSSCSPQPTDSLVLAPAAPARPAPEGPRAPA
Assay: Human radioligand binding assay, (125I)-U-II on HSMM
Experimental: Human Skeletal Muscle Myoblasts (HSMM) were obtained from Cambrex, and were cultured according to manufacturer's instruction. Cell viability was examined by trypan blue exclusion. Cells at less than 4 passages were used in all studies. […] The binding medium used was Dulbecco's modified Eagle's medium (DMEM) containing 2 mg/ml BSA and 25 mM HEPES (pH 7.4). […] The cells were washed 4× with the binding medium and solubilized in 1% SDS and 0.5 N NaOH. Radioactivity was quantified by gamma counting.

CN(C)C(=O)C1(c2ccc(Cl)cc2)CCN(CCN2C(=O)COc3ccccc32)CC1 [Cpd 113, 4-(4-chloro-phenyl)-1-[2-(3-oxo-2,3-dihydro-benzo[1,4]oxazin-4-yl)-ethyl]-piperidine-4-carboxylic acid dimethylamide]
Ki: 1.7 µM

From patent US8759342B2, “Benzo[1,4]oxazin-3-one, benzo[1,4]thiazin-3-one and quinolin-2-one urotensin II receptor antagonists” (Janssen Pharmaceutica NV, priority 2006, dated 2014)
